Experimental data published in US8952162B2, “Triazolopyridines as phosphodiesterase inhibitors for treatment of dermal diseases” (Leo Pharma A/S, priority 2008, dated 2015).

Protein sequences, listed by entry. Tags and fused reporters are not part of them. Residues count along the entry.
UniProt Q08499, 1-673 isoform 2: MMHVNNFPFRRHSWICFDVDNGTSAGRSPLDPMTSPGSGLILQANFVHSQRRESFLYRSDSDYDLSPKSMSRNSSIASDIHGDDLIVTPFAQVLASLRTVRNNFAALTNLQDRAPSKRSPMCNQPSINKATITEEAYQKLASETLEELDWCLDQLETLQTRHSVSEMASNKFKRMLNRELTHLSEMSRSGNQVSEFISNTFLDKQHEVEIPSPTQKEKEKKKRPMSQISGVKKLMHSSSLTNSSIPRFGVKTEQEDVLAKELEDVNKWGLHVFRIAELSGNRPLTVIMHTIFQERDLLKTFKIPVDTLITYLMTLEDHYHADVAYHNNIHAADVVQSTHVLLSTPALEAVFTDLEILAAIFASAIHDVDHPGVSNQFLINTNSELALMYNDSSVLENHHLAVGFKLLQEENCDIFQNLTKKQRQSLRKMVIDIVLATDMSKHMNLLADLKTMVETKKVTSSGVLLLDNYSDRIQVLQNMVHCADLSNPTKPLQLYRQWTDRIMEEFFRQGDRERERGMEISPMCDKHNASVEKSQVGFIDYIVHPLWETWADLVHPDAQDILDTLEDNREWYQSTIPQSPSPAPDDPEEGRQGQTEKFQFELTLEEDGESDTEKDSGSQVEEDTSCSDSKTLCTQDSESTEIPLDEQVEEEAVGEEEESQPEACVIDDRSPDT

target: Human recombinant PDE4 (Genbank accession no NM—006203) (Homo sapiens, UniProt Q08499); experiment: PDE4 assay (SPA, cAMP cleavage); settings: read-out: PDE4 IC50 range; Example 52; human recombinant PDE4, 1 hour incubation, cAMP 1×10^-5M, test compound up to 10 μM

**Q.** Which IC50 does the source give for `COc1ccc(-c2cccc(C(N)=O)c2)n2nc(C3CC3)nc12` here?
**A.** < 500 nM

**Q.** With `COc1ccc(-c2cccc(CO)c2)n2nc(C3CC3)nc12` as the molecule, how does the IC50 read?
**A.** < 500 nM

**Q.** Which IC50 does the source give for `COc1ccc(-c2cccc(C(=O)N(C)C)c2)n2nc(C3CC3)nc12` here?
**A.** 500 to 1000 nM

**Q.** How did the IC50 turn out when `COc1ccc(-c2ccc(C(=O)N(C)C)cc2)n2nc(C3CC3)nc12` was run?
**A.** > 1000 nM

**Q.** `CNC(=O)c1ccc(-c2ccc(OC)c3nc(C4CC4)nn23)cc1` was tested. Which IC50 did it give?
**A.** > 1000 nM
